Assay [1] deals with T1, Glutamate NMDA receptor (Mus musculus) (UniProt P35436+Q91ZU9+Q03391+P35438+Q01097+Q01098+A2AIR5). As to the kind of experiment: Inhibition of NMDAR-mediated synaptic current in mouse acute hippocampus by whole-cell patch-clamp recording method. It is filed as tissue-based. In general terms: Patch clamp records ionic current or voltage across a cell membrane.
The target in assay [2] is T2, Transient receptor potential cation channel subfamily M member 4 (Mus musculus) (UniProt Q7TN37).
T2 sequence (whole entry): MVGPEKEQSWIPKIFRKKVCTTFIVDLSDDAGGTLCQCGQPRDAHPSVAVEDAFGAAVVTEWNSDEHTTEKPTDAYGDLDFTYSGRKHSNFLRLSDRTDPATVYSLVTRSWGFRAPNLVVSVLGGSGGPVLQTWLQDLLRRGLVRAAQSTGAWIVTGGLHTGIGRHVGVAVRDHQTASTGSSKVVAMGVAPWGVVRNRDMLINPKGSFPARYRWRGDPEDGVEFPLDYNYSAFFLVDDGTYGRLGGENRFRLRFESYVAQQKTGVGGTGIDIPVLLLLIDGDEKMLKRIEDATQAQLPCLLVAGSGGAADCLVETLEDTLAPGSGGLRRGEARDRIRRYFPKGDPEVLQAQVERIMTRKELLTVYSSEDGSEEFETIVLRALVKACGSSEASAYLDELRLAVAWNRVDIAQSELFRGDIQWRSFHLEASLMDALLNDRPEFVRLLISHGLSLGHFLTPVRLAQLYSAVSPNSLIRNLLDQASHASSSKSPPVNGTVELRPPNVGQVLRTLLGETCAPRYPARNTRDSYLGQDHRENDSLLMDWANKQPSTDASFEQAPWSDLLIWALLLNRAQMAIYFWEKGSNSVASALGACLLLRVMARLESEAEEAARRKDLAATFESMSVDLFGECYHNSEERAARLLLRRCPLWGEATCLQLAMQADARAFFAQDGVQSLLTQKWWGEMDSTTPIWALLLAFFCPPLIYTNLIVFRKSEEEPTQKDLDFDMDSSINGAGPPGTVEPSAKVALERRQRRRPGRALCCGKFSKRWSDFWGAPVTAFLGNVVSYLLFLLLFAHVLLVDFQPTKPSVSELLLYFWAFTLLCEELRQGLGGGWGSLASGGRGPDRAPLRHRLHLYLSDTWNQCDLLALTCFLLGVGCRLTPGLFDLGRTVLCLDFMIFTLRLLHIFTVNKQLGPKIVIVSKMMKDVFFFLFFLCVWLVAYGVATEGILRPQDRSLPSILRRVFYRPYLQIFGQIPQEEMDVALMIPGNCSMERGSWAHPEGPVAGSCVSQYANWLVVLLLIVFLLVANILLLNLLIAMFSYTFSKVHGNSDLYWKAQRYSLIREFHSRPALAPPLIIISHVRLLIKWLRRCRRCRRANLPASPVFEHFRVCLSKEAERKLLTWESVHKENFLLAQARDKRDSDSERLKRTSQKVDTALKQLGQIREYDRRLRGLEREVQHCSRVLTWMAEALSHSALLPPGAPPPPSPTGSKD
The assay can be described thus: Inhibition of TRPM4 in NMDA-treated C57BL/6 mouse primary cortical neurons by immunofluorescence based analysis. It is filed as cell-based. Conditions: Primary cortical neuron.

Protein sequences, listed by entry. Tags and fused reporters are not part of them. Lines headed by an entry give the natural chain unless they say otherwise; changes in a name come on top.
UniProt Q91ZU9: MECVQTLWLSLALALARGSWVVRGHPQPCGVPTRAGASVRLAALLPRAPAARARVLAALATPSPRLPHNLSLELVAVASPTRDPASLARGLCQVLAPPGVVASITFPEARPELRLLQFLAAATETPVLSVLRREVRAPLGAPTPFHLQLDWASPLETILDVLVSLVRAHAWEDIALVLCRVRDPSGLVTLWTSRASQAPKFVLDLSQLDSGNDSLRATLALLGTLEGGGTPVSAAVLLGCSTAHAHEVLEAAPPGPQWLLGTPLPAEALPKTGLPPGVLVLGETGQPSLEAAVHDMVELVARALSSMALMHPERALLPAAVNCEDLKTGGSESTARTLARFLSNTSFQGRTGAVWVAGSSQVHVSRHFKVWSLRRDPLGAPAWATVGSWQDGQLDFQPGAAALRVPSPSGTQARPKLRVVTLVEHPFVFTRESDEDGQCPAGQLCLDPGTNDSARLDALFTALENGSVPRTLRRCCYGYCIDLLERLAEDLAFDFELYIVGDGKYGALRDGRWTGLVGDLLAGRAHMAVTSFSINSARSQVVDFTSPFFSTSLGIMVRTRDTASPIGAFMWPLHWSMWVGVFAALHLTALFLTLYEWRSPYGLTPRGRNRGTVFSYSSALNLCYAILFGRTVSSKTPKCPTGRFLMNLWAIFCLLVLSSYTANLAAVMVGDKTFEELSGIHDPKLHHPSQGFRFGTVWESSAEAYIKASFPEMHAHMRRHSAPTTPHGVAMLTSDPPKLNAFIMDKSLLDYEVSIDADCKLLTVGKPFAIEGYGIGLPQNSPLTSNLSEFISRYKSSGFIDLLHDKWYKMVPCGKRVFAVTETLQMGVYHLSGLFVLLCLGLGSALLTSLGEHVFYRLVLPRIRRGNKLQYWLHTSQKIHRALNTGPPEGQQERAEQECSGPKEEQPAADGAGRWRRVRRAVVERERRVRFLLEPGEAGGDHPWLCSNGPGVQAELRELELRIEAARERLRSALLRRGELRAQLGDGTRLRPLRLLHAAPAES
UniProt Q03391: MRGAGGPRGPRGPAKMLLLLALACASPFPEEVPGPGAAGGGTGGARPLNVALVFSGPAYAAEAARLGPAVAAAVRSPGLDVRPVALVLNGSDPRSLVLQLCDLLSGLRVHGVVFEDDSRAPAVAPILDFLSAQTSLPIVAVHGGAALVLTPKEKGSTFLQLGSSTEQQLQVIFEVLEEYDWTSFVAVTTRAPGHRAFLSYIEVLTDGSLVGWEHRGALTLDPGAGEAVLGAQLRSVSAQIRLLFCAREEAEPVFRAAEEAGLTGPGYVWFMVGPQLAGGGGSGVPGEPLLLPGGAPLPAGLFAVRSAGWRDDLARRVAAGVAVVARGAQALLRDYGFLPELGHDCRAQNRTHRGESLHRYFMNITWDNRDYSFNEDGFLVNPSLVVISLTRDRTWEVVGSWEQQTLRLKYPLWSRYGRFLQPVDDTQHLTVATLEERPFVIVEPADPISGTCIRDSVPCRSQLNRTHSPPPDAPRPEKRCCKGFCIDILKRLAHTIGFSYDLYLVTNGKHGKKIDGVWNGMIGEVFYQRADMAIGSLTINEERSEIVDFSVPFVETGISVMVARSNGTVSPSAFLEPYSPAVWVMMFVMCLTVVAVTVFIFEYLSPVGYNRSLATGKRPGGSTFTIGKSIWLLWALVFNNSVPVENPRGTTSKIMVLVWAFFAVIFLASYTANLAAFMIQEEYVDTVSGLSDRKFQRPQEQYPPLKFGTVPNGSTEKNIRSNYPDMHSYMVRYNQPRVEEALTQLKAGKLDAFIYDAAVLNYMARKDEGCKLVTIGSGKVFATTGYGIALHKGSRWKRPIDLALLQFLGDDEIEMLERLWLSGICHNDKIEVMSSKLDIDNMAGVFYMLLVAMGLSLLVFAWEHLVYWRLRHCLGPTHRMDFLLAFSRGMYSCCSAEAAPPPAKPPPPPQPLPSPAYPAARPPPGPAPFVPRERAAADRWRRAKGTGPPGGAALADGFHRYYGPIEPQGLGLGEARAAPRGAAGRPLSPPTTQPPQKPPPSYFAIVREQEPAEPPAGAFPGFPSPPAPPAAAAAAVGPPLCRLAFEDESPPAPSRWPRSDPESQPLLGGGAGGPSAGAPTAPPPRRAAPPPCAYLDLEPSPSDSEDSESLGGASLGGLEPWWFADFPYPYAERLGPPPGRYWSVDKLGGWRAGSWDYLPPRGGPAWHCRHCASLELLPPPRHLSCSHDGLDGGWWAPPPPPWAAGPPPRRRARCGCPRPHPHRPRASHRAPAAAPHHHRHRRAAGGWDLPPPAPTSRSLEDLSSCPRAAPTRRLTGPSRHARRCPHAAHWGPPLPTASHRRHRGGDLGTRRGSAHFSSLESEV
UniProt Q01097: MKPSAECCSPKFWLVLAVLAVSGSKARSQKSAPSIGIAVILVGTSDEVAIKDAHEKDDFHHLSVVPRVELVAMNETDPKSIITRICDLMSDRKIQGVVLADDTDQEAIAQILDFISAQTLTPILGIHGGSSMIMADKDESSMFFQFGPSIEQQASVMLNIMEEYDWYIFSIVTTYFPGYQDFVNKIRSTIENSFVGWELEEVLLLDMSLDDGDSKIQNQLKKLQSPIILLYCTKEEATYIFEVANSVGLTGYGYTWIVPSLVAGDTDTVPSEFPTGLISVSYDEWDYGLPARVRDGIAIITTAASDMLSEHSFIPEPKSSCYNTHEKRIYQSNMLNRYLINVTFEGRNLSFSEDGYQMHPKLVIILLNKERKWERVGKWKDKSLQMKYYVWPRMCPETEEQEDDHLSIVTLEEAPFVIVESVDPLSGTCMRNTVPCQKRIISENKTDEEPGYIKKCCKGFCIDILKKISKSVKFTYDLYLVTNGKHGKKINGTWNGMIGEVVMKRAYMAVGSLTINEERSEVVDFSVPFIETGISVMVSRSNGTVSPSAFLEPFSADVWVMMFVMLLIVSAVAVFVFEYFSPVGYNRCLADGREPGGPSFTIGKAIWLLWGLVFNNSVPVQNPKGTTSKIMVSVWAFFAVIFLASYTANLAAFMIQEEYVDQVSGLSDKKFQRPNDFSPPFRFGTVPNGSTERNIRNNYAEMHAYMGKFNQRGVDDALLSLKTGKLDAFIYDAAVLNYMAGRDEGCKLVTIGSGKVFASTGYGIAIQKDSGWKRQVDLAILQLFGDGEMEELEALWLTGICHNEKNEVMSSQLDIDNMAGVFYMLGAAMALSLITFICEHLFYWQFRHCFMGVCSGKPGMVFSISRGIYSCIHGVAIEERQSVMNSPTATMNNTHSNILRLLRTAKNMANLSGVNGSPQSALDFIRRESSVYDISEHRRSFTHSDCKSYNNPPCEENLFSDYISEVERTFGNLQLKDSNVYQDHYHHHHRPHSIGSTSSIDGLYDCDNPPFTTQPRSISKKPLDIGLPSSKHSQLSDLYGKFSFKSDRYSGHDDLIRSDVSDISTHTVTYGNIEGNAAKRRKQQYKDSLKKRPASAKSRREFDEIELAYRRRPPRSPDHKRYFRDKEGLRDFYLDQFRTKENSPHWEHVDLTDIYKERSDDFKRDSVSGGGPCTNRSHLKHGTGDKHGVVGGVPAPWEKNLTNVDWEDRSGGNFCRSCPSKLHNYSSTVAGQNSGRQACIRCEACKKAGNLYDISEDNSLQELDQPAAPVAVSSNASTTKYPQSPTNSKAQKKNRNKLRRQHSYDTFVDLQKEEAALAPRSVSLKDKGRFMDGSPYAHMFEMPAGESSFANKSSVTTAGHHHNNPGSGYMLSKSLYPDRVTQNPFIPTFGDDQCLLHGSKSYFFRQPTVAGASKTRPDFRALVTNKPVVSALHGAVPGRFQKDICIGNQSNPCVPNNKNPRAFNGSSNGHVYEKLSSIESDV
UniProt Q01098: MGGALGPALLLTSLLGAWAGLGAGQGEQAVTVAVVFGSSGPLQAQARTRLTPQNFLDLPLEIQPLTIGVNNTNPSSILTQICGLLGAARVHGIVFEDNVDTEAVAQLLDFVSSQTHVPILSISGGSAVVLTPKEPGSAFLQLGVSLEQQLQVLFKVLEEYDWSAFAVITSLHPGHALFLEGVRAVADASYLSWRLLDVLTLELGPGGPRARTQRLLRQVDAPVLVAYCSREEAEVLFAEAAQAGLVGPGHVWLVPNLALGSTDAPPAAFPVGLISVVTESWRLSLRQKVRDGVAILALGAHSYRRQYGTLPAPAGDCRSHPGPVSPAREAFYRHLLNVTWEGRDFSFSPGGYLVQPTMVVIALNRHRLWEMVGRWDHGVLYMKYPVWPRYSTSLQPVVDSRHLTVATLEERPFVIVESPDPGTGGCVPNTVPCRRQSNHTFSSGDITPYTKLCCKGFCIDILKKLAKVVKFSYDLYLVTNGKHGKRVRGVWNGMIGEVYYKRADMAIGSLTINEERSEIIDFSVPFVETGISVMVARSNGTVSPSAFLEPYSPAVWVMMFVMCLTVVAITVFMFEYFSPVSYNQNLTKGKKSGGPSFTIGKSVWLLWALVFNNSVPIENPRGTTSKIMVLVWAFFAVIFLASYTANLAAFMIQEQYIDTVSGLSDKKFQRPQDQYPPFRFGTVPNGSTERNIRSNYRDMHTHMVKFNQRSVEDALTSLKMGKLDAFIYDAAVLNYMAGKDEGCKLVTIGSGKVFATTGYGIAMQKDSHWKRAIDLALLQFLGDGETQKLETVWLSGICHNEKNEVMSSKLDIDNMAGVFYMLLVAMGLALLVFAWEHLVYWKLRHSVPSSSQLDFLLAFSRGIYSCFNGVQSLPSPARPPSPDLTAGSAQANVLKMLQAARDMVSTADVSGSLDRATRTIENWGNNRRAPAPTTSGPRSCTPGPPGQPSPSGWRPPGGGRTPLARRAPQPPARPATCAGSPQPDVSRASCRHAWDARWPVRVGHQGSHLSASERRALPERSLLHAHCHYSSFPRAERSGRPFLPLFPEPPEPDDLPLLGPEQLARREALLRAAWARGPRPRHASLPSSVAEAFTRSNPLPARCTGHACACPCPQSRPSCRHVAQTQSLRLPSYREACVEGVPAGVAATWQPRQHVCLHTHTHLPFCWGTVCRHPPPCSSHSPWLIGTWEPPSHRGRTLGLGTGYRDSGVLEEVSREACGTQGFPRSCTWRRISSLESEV
UniProt A2AIR5: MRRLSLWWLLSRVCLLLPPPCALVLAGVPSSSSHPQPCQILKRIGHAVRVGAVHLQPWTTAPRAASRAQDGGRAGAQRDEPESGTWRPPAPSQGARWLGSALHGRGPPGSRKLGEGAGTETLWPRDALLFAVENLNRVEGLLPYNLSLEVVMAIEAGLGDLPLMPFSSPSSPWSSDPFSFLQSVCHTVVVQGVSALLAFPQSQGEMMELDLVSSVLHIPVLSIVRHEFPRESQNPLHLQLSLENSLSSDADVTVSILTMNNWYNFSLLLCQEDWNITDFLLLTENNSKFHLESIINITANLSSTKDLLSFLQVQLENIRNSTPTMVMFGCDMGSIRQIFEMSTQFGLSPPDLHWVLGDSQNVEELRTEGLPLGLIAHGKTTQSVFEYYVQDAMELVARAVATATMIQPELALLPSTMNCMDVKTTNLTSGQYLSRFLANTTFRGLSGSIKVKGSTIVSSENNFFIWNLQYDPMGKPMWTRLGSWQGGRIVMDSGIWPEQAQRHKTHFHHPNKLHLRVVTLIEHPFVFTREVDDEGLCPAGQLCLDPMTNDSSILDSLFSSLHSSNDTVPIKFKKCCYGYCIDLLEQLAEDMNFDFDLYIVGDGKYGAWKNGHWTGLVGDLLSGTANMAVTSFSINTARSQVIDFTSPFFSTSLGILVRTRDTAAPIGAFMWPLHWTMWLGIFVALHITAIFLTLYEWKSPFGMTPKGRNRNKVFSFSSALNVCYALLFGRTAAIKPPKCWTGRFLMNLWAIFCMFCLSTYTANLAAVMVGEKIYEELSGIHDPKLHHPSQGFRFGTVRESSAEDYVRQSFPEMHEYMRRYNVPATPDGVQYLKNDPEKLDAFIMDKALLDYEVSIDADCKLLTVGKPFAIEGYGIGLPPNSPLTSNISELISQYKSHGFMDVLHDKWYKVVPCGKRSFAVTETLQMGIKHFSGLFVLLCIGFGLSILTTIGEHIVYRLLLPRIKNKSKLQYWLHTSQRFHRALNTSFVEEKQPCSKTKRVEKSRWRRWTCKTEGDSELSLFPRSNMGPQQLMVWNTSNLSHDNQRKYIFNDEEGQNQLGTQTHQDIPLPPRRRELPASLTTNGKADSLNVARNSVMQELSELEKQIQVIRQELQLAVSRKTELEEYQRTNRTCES

Assay [3] deals with T1, Glutamate NMDA receptor (Mus musculus). The assay can be described thus: Inhibition of NMDAR-mediated extrasynaptic current in mouse acute hippocampus by whole-cell patch-clamp recording method. Type of assay: tissue-based.
Assay [4] has the same target. As to the kind of experiment: Inhibition of NMDAR in C57BL/6 mouse primary cortical neurons assessed as increase in NMDA-reduced p-Akt level by Western blot analysis. It is filed as cell-based. Conditions: Primary cortical neuron.
The target is the same in assay [5]. The assay can be described thus: Inhibition of NMDAR in C57BL/6 mouse primary cortical neurons assessed as increase in OGD/R-reduced p-CREB level by Western blot analysis. It is filed as cell-based. Conditions: Primary cortical neuron. (A western blot detects proteins with antibodies after separation by electrophoresis.)
Assay [6] has the same target. As to the kind of experiment: Inhibition of NMDAR in C57BL/6 mouse primary cortical neurons assessed as increase in OGD/R-reduced p-Akt level by Western blot analysis. It is filed as cell-based. The following applies: Primary cortical neuron.
Assay [7] has the same target. As to the kind of experiment: Inhibition of NMDAR in C57BL/6 mouse primary cortical neurons assessed as increase in NMDA-reduced p-CREB level by Western blot analysis. Type of assay: cell-based. The following applies: Primary cortical neuron.
Assay [8] shares this target. The assay can be described thus: Inhibition of NMDAR in C57BL/6 mouse primary cortical neurons assessed as increase in NMDA-reduced p-ERK level by Western blot analysis. Type of assay: cell-based. The following applies: Primary cortical neuron.
The target is the same in assay [9]. As to the kind of experiment: Inhibition of NMDAR in C57BL/6 mouse primary cortical neurons assessed as increase in OGD/R-reduced p-CaMKII level by Western blot analysis. Type of assay: cell-based. Conditions: Primary cortical neuron.
For assay [10] the target is unchanged. The assay can be described thus: Inhibition of NMDAR in C57BL/6 mouse primary cortical neurons assessed as increase in NMDA-reduced p-CaMKII level by Western blot analysis. It is filed as cell-based. Conditions: Primary cortical neuron.
Assay [11] has the same target. As to the kind of experiment: Inhibition of NMDAR in C57BL/6 mouse primary cortical neurons assessed as increase in OGD/R-reduced p-ERK level by Western blot analysis. It is filed as cell-based. Conditions: Primary cortical neuron.

Calls of active or inactive are those of the source. The rule behind the calls is not given here.

With `CCN(CCN)C(C)c1c(F)ccc(C#N)c1F` (stereo unspecified), the inhibition result in assay [1] and in assay [3] was “inactive” in each case. For the same compound, the inhibition entry in assay [2], in [4], in assay [5], in assay [6], in [7] and in [8] was “Active” each time. For the same compound, the inhibition entry in assay [9], in [10] and in assay [11] was “Active” throughout.

For the origin of these results see ChEMBL document CHEMBL6096677, “Discovery of HZS60 as a Novel Brain Penetrant NMDAR/TRPM4 Interaction Interface Inhibitor with Improved Activity and Pharmacokinetic Properties for the Treatment of Cerebral Ischemia” (J Med Chem, 2025).
